# Data reported in patent US20180186877A1, “METHOD FOR SUPPRESSING BLOOD COAGULATION REACTION FOR WHICH LOX-1 IS RESPONSIBLE” (NATIONAL CEREBRAL AND CARDIOVASCULAR CENTER, priority 2013, published 2018).
# Target: Human Factor V (HCV-0100, Haematologic Technologies Inc.) (human) (UniProt P12259)
# Test: SPR (Biacore), FV immobilised on the chip, LOX-1 0-400 nM flowed; equilibrium (Req) analysis
substance,measurement,value
"Epitope-tagged recombinant LOX-1 protein (NM002543, aa 61-273, 6xHis; pcDNA4, Igk secretion signal; secreted by FreeStyle293 cells) (from UniProt P78380 61-273) (receptor)",Kd,15.2 nM
